Test results reported in patent publication US20250090540A1, “PI3K-ALPHA INHIBITORS AND METHODS OF USE THEREOF” (Relay Therapeutics, Inc., priority 2021, published 2025).
Where two headings read alike, the source gives them in different places.

Sequences of proteins named here, by UniProt entry; tags and fusion partners are left off.
UniProt P42336, whole entry H1047R: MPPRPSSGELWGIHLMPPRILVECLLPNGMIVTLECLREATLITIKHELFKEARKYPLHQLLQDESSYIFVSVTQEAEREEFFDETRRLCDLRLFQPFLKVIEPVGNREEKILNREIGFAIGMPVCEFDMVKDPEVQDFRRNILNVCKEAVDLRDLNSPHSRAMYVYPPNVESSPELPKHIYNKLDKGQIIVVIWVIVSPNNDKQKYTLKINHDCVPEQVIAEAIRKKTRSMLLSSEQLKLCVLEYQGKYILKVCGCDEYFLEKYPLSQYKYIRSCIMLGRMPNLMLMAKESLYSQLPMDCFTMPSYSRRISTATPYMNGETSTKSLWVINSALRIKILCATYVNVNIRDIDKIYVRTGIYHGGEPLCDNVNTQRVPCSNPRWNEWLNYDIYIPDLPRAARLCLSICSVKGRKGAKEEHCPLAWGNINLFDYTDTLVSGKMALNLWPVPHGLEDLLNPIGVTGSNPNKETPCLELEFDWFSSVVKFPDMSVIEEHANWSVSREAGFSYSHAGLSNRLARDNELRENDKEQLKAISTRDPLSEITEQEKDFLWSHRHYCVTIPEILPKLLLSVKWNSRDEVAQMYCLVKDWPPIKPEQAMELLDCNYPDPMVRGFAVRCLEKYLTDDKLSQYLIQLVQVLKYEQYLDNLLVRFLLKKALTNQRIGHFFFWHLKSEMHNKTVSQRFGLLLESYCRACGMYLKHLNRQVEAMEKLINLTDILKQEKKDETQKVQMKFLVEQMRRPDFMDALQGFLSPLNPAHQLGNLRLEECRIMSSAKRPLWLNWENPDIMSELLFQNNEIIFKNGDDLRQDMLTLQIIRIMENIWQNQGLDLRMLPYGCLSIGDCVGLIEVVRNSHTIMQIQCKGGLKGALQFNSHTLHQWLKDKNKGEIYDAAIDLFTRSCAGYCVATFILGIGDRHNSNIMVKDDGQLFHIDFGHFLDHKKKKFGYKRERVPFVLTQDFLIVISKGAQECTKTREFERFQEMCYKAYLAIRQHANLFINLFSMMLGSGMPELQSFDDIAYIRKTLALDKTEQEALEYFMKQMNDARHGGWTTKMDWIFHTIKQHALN
UniProt P27986, whole entry partner: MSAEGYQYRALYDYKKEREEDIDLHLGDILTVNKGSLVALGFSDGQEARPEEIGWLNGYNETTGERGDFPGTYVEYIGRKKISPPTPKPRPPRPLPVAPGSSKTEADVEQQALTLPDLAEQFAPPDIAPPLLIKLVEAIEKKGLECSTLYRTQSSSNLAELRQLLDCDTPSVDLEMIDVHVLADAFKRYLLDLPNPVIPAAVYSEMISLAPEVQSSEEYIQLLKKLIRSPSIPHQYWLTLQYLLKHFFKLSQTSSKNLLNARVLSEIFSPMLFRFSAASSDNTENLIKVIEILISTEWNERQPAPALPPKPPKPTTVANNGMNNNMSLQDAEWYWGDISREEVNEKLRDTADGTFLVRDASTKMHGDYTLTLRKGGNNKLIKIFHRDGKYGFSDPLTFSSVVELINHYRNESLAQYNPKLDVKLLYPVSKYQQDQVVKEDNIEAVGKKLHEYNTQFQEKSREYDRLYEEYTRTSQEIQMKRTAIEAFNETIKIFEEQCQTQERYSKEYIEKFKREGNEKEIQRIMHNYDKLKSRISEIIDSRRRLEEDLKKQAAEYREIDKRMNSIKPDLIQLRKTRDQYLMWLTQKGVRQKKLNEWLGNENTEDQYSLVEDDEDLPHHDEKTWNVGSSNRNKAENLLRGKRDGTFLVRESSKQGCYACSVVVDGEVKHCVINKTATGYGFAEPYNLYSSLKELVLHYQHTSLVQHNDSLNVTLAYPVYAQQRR

What was measured:
[1] = molecular target: H1047R PIK3CA enzyme (Homo sapiens, UniProt P42336, H1047R); test: ADP-Glo Biochemical PIK3CA Kinase Assay; conditions: read-out: ADP-Glo IC50
[2] = system: PIK3CA-mediated AKT phosphorylation in MCF10A cells overexpressing hotspot PIK3CA mutations (including H1047R, E542K, and E545K mutations)
[3] = ADP-Glo biochemical PIK3CA kinase assay

| SMILES | IC50 [1, 3] | IC50 [2] | also measured |
| --- | --- | --- | --- |
| CNC(=O)c1cnc(Nc2cccc3c2CCO3)c(NC(=O)c2cc(F)cc(C(F)(F)F)c2)c1 | 500 to 1000 nM | – | – |
| CNC(=O)c1cnc(Nc2ccccc2C)c(NC(=O)c2cc(F)c(C#N)c(F)c2)c1 | 1000 to 10000 nM | – | – |
| Cc1ccccc1Nc1ncc(C(=O)N(C)C2CS(=O)(=O)C2)cc1NC(=O)c1csc2ccccc12 | 100 to 500 nM | 10000 to 36000 nM | – |
| Cc1ccccc1Nc1ncc(S(C)(=O)=O)cc1NC(=O)c1cc(F)cc(C(F)(F)F)c1 | 100 to 500 nM | 1000 to 5000 nM | – |
| CNC(=O)c1cnc(Nc2ncccc2Cl)c(NC(=O)c2csc3ccccc23)c1 | 1000 to 10000 nM | – | – |
| CNC(=O)c1cnc(Nc2cccc(C)n2)c(NC(=O)c2csc3ccccc23)c1 | 1000 to 10000 nM | – | – |
| Cc1ccccc1Nc1ncc(C(=O)N[C@H]2C[C@@H](C(=O)OC(C)(C)C)C2)cc1NC(=O)c1csc2ccccc12 | 1000 to 10000 nM | 10000 to 36000 nM | – |
| Cc1ccccc1Nc1nccnc1NC(=O)c1csc2ccccc12 | 1000 to 10000 nM | – | – |
| CNC(=O)c1cnc(Nc2ccccc2C)c(NC(=O)c2cccn(C(F)F)c2=O)c1 | 10000 to 100000 nM | – | – |
| Cc1ccccc1Nc1ncc(C(=O)N[C@H]2C[C@@H](C(=O)N(C)C)C2)cc1NC(=O)c1csc2ccccc12 [I-694] | 1000 to 10000 nM | – | – |
| COC(=O)c1cnc(Nc2ccccc2C)c(NC(=O)c2cccc(C3(C(F)(F)F)N=N3)c2)c1 | – | – | IC50 [1]: 1000 to 10000 nM |
| CNC(=O)c1cnc(Nc2nccnc2C)c(NC(=O)c2csc3ccccc23)c1 | 1000 to 10000 nM | – | – |
| CNC(=O)c1cnc(Nc2ccccc2C)c(NC(=O)c2cc(F)c(F)c(Cl)c2)c1 | 100 to 500 nM | < 1000 nM | – |
| CNC(=O)c1cnc(Nc2ccccc2C)c(NC(=O)C2CCc3ccccc3C2)c1 (centres unmarked) | – | – | IC50 [1]: 10000 to 100000 nM |
| CNC(=O)c1cnc(Nc2ccccc2C)c(NC(=O)c2cc(F)c(OC)c(Cl)c2)c1 | 1000 to 10000 nM | – | – |
| Cc1ccccc1Nc1ncc(NC2CC3(COC3)C2)cc1NC(=O)c1csc2ccccc12 | 1000 to 10000 nM | – | – |
| Cc1ccccc1Nc1ncc(C(=O)NC2(C)CC2)cc1NC(=O)c1cc(F)cc(C(F)(F)F)c1 | – | 5000 to 10000 nM | – |
| CNC(=O)c1cnc(Nc2ccc(C)cn2)c(NC(=O)c2csc3ccccc23)c1 | 1000 to 10000 nM | – | – |
| Cc1ccccc1Nc1ncc(C(=O)NCC2CS(=O)(=O)C2)cc1NC(=O)c1cc(F)cc(C(F)(F)F)c1 | 1000 to 10000 nM | – | – |
| CNC(=O)c1cnc(Nc2cccc3c2OCC3)c(NC(=O)c2cc(F)cc(C(F)(F)F)c2)c1 | 1000 to 10000 nM | – | – |
| Cc1ccccc1Nc1ncc(N2CCC(N)C2)cc1NC(=O)c1cc(F)cc(C(F)(F)F)c1 (centres unmarked) | – | – | IC50 ([1]; tested form: formate): 1000 to 10000 nM |
| CNC(=O)c1cnc(Nc2ccccc2C)c(NC(=O)c2cc(F)c(F)c(OC)c2)c1 | – | 1000 to 5000 nM | – |
| Cc1ccccc1Nc1ncc(S(N)(=O)=O)cc1NC(=O)c1cc(F)cc(C(F)(F)F)c1 | 1000 to 10000 nM | – | – |
| CNC(=O)c1cnc(Nc2cccc3c2OCC3)c(NC(=O)c2csc3ccccc23)c1 | 1000 to 10000 nM | – | – |

| SMILES | IC50 [1, 3] | IC50 [2] | also measured |
| --- | --- | --- | --- |
| Cc1ccccc1Nc1ncc(C(=O)Nc2cnn(C)c2)cc1NC(=O)c1cc(F)cc(C(F)(F)F)c1 | 100 to 500 nM | 1000 to 5000 nM | – |
| CNC(=O)c1cnc(Nc2ccccc2C)c(NC(=O)c2cnc3ccccn23)c1 | 10000 to 100000 nM | – | – |
| CNC(=O)c1cnc(Nc2ccccc2C)c(NC(=O)c2cc(OC)nc(C(F)(F)F)c2)c1 | 1000 to 10000 nM | – | – |
| CNC(=O)c1cnc(Nc2ccccc2C)c(NC(=O)c2ccc(Cl)c(F)c2)c1 | 1000 to 10000 nM | – | – |
| CNC(=O)c1cnc(N2CCCCC2CCO)c(NC(=O)c2cc(F)cc(C(F)(F)F)c2)c1 (centres unmarked) | – | – | IC50 [1]: 1000 to 10000 nM |
| COc1cc(-c2cnc(Nc3ccccc3C)c(NC(=O)c3cc(F)cc(C(F)(F)F)c3)c2)ccn1 | – | 1000 to 5000 nM | IC50 [1]: 500 to 1000 nM |
| Cc1ccccc1Nc1ncc(C(=O)NCC(F)F)cc1NC(=O)c1cc(F)cc(C(F)(F)F)c1 | 100 to 500 nM | 10000 to 36000 nM | – |
| Cc1ccccc1[C@H]1NC(=O)C[C@H]1C(=O)Nc1cc(F)cc(C(F)(F)F)c1 (relative stereo) | 1000 to 10000 nM | – | – |
| Cc1ccccc1Nc1ncc(-c2ncc[nH]2)cc1NC(=O)c1csc2ccccc12 | 100 to 500 nM | 5000 to 10000 nM | – |
| Cc1ccccc1Nc1ncc(C(=O)NCC2(O)CC2)cc1NC(=O)c1cc(F)cc(C(F)(F)F)c1 | – | 1000 to 5000 nM | – |
| Cc1ccccc1Nc1nc2nncn2cc1NC(=O)c1csc2ccccc12 | – | 1000 to 5000 nM | IC50 [1]: 500 to 1000 nM |
| Cc1ccccc1Nc1ncc(C(=O)NC2COC2)cc1NC(=O)c1cc(F)cc(C(F)(F)F)c1 | 100 to 500 nM | 1000 to 5000 nM | – |
| CNC(=O)c1cnc(Nc2ccccc2C)c(NC(=O)c2cc(C(F)(F)F)ccc2F)c1 | – | 1000 to 5000 nM | – |
| CCCCC(CC)COC(=O)CCSc1cnc(Nc2ccccc2C)c(NC(=O)c2cc(F)cc(C(F)(F)F)c2)c1 (centres unmarked) | 1000 to 10000 nM | – | – |
| CNC(=O)c1cnc(Nc2ccccc2C)c(NC(=O)c2cc(Cl)cc(C(F)(F)F)c2)c1 | – | 5000 to 10000 nM | – |
| Cc1ccccc1Nc1ncc(C(=O)N[C@H]2C[C@H](C(=O)OC(C)(C)C)C2)cc1NC(=O)c1csc2ccccc12 | 500 to 1000 nM | 36000 to 100000 nM | – |
| CNC(=O)c1cnc(Nc2cccc3c2CCO3)c(NC(=O)c2csc3ccccc23)c1 | 500 to 1000 nM | – | – |
| CNC(=O)c1cnc(Nc2ccccc2)c(NC(=O)c2csc3ccccc23)c1 | 100 to 500 nM | 36000 to 100000 nM | – |
| Cc1ccccc1Nc1ncc(C(=O)NC2(C)CS(=O)(=O)C2)cc1NC(=O)c1cc(F)cc(C(F)(F)F)c1 | 1000 to 10000 nM | – | – |
| Cc1ccccc1Nc1ncc(C(=O)N[C@H]2C[C@@H](C(=O)O)C2)cc1NC(=O)c1csc2ccccc12 | 500 to 1000 nM | 10000 to 36000 nM | – |
| Cc1ccccc1Nc1ncc(C(=O)NCc2ccncn2)cc1NC(=O)c1cc(F)cc(C(F)(F)F)c1 | 100 to 500 nM | 5000 to 10000 nM | – |
| Cc1ccccc1Nc1ncc(C(=O)NCc2cocn2)cc1NC(=O)c1cc(F)cc(C(F)(F)F)c1 | – | 1000 to 5000 nM | – |
| CNC(=O)c1cnc(Nc2ccccc2C)c(NC(=O)c2ccc(Cl)c(C(F)(F)F)c2)c1 | 1000 to 10000 nM | – | – |
| Cc1ccccc1Nc1ncc(C(=O)N[C@@H]2CC[C@H](C(=O)O)C2)cc1NC(=O)c1csc2ccccc12 (relative stereo) | 1000 to 10000 nM | – | – |
